Data on one compound can be found in ChEMBL document CHEMBL1144010, “Synthesis and in vitro opioid receptor functional antagonism of analogues of the selective kappa opioid receptor antagonist (3R)-7-hydroxy-N-((1S)-1-{[(3R,4R)-4-(3-hydroxyphenyl)-3,4-dimethyl-1-piperidinyl]methyl}-2-methylpropyl)-1,2,3,4-tetrahydro-3-isoquinolinecarboxamide (JDTic)” (J Med Chem, 2008).

Protein sequences, listed by entry. Tags and fused reporters are not part of them. Lines headed by an entry give the natural chain unless they say otherwise; changes in a name come on top.
UniProt P35372, whole entry: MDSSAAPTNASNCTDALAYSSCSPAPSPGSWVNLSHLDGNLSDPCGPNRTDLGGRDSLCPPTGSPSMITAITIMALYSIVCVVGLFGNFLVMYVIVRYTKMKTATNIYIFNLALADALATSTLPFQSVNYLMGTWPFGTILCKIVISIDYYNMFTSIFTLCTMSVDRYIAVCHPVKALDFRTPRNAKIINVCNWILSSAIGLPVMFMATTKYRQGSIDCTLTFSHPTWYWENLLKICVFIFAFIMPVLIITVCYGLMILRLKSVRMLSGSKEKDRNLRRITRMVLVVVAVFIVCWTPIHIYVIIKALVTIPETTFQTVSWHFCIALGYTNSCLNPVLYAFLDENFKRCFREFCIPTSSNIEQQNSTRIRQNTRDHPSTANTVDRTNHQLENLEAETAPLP
UniProt P41143, whole entry: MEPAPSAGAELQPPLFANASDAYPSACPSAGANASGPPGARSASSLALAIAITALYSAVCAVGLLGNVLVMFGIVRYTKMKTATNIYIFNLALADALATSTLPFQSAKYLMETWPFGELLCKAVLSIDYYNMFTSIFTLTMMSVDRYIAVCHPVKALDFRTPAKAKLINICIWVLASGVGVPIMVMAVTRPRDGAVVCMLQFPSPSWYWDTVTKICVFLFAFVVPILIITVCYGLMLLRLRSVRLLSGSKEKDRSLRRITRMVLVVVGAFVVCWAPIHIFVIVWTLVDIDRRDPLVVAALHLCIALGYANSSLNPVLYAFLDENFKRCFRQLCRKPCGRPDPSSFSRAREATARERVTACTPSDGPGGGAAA
UniProt P41145: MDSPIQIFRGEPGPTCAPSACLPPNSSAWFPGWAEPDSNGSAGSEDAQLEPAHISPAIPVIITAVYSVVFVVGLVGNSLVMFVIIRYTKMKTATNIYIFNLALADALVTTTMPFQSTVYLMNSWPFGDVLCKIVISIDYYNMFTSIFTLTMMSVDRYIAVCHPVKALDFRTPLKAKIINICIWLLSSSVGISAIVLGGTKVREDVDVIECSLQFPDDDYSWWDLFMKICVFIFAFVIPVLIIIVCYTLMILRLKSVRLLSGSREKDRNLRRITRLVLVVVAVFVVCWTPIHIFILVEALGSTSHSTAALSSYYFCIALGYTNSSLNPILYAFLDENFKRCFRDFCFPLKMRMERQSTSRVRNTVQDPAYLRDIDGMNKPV

For assay [1], the target named is Mu-type opioid receptor (Homo sapiens) (UniProt P35372). The experiment in a line: Antagonist activity at human cloned mu opioid receptor expressed in CHO cells assessed as inhibition of DAMGO-stimulated [35S]GTPgammaS binding. Type of assay: functional, cell-based. In outline:
(§1)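 Agonist concentration-response curves for stimulated [35S]GTPγS binding are run with and without a single concentration of test compound. Ke = [L]/(DR−1), where DR is the ratio of agonist EC50 with and without compound. At least two compound concentrations are used, each chosen to give at least a 2-fold rightward EC50 shift and a clear upper asymptote.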

Assay [2] has as its system CHO. Briefly: Selectivity for human cloned kappa opioid receptor over human cloned mu opioid receptor expressed in CHO cells. Type of assay: cell-based.
The subject of assay [3] is CHO. The experiment in a line: Selectivity for human cloned kappa opioid receptor over human cloned delta opioid receptor expressed in CHO cells. Type of assay: cell-based.
Assay [4] concerns the target Delta-type opioid receptor (Homo sapiens) (UniProt P41143). The experiment in a line: Antagonist activity at human cloned delta opioid receptor expressed in CHO cells assessed as inhibition of DPDPE-stimulated [35S]GTP-gamma-S binding. Type of assay: functional, cell-based. Put shortly:
as §1
Background: Binding of GTPγS marks nucleotide exchange on a G protein.

For assay [5], the target named is Kappa-type opioid receptor (Homo sapiens) (UniProt P41145). The experiment in a line: Antagonist activity at human cloned kappa opioid receptor expressed in CHO cells assessed as inhibition of U69593-stimulated [35S]GTP-gamma-S binding. Type of assay: functional, cell-based. Put shortly:
as §1

The structures appear in SMILES notation.

In the case of `CC(C)[C@@H](CN1CC[C@@](C)(c2cccc(C(N)=O)c2)[C@@H](C)C1)NC(=O)[C@H]1Cc2ccc(O)cc2CN1`, the Ke in assay [1] is 21 nM; in assay [4] it was 478 nM; in assay [5] it was 0.1 nM. The values for the Ratio Ke in assay [2] and in assay [3] were 210 and 4780, respectively.
